These are literature values, as cited in patent US7172752B2, “Combination particles for the treatment of asthma” (Orion Corporation, priority 2000, dated 2007).

Turning to Formoterol fumarate, the solubility in ethanol entry (ethanol) is given as “sparingly soluble”. Further, the “solubility in glacial acetic acid” value (glacial acetic acid) is listed as “freely soluble”. Besides, the solubility in methanol entry (methanol) is “soluble”.
